The target of this test is murine CXCR4 (mCXCR4) (Mus musculus, UniProt P70658). Kind of test: Competition binding to mCXCR4, Eµ-myc 1080 mouse lymphoma cells, [125I]CPCR4.3 as radioligand. The settings on record: read-out: IC50 [nM] to mCXCR4, Eµ-myc 1080 mouse lymphoma cells 200.000 cells/sample, means ± SD of min. three separate experiments.

Chains of the proteins cited; added tags and fusions are not shown.
UniProt P70658, whole entry: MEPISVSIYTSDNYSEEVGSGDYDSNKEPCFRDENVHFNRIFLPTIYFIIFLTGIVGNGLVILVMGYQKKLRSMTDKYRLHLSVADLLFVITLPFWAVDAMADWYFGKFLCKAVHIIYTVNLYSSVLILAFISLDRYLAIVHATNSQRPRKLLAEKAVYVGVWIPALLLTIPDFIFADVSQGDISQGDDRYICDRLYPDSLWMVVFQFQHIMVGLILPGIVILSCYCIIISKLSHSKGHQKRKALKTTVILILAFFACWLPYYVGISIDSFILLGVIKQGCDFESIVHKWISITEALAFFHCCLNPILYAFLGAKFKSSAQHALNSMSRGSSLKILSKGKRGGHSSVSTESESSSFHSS

For one molecule, IC50 results are on record in PMC7381729, “A new class of PentixaFor- and PentixaTher-based theranostic agents with enhanced CXCR4-targeting efficiency” (Theranostics, 2020).

Take `CN1C(=O)[C@@H](Cc2ccc(O)cc2)NC(=O)CNC(=O)[C@H](Cc2ccc3ccccc3c2)NC(=O)[C@H](CCCNC(=N)N)NC(=O)[C@H]1CCCNC(=O)c1ccc(CNC(=O)CN2CCN(CC(=O)O)CCN(CC(=O)O)CCN(CC(=O)O)CC2)cc1` [[^68Ga]PentixaFor, cyclo(D-Tyr^1-D-[NMe]Orn^2(AMBS-[^68Ga]DOTA)-Arg^3-Nal^4-Gly^5), metal not drawn]: the IC50 is above 1000 nM.
